This assay relates to lymphocytic leukemia P388. In words: Activity against lymphocytic leukemia P388 in mice. Particulars: 2 mg/kg; ip, qd 1-9 days; 10^6 P388 cells ip, CDF1 mice. It is filed as in vivo, mouse (CDF1 mice).

The structures appear in SMILES notation.

On to `CN(Cc1cnc2nc(N)nc(N)c2n1)c1ccc(C(=O)N[C@@H](CCC(=O)O)C(=O)O)cc1` [Methotrexate, reference compound], for which the “% ILS” value is given as 61%.

(Values after patent publication US4628089A, “Pyrido(2,3-D)pyrimidines” (Southern Research Institute, priority 1985, dated 1986).)
